# Laboratory results: patent publication EP4834907A1, “HETEROCYCLIC COMPOUND, AND PHARMACEUTICAL COMPOSITION THEREOF AND USE THEREOF” (dated 2026)
# By UniProt entry, the sequences of proteins in these tests, tags left out. Residues count along the entry.
# UniProt P29597, 589-875 limits assumed: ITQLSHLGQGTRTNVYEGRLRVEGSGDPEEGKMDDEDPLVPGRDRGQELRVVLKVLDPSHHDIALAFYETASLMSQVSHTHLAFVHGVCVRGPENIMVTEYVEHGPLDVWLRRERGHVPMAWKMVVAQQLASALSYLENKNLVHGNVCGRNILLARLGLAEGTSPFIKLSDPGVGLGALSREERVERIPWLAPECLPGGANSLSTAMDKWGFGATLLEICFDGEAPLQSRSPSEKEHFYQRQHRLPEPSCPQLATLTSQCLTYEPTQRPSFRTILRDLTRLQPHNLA
# Biological target: TYK2 JH2 pseudokinase (Homo sapiens, UniProt P29597)
# Assay: TYK2 JH2 in vitro enzyme binding experiment (TR-FRET tracer competition)
# Details: read-out: TYK2 JH2 IC50 nM, TYK2 JH2 pseudokinase 0.5 nM, Tracer 1 nM
row,SMILES,IC50
1,CNc1cc(Nc2ccc3oc4ccccc4n3c2=O)nn2c(C(=O)N[C@@H]3CC[C@H]3OC)cnc12,< 10 nM
2,CNc1cc(Nc2cccc3c2oc2ccc(C)nc23)nn2c(C(=O)NC3CCC3OC)cnc12 (stereo not drawn),< 10 nM
3,CNc1cc(Nc2cccc3c2oc2ccc(C(F)(F)F)nc23)nn2c(C(=O)NC3CCC3OC)cnc12 (stereo not drawn),< 10 nM
4,CNc1cc(Nc2cccc3c2oc2cnc(OC)nc23)nn2c(C(=O)N[C@@H]3CC[C@H]3OC)cnc12,< 10 nM
5,CNc1cc(Nc2cccc3c2oc2cccnc23)nn2c(C(=O)N[C@@H]3CC[C@H]3OC)cnc12,< 10 nM
6,CNc1cc(Nc2cccc3c2oc2cc(F)cnc23)nn2c(C(=O)N[C@@H]3CC[C@H]3OC)cnc12,< 10 nM
7,CNc1cc(Nc2cccc3c2oc2nc(C)c(C)cc23)nn2c(C(=O)NC3CCC3OC)cnc12 (stereo not drawn),< 10 nM
8,CNc1cc(Nc2cccc3c2oc2nc(C)c(C)nc23)nn2c(C(=O)NC3CCC3OC)cnc12 (stereo not drawn),< 10 nM
9,CNc1cc(Nc2cccc3c2oc2cnc(C)nc23)nn2c(C(=O)NC3CCC3OC)cnc12 (stereo not drawn),< 10 nM
10,CNc1cc(Nc2cccc3c2oc2cnc(C4CC4)nc23)nn2c(C(=O)NC3CCC3OC)cnc12 (stereo not drawn),< 10 nM

# System: Ba/F3-FL-TYK2-E957D cells
# Assay: Cell proliferation inhibition, CTG (CellTiter-Glo) luminescence assay
# Details: read-out: Ba/F3-TYK2-E957D IC50 nM, 72 h incubation
row,SMILES,IC50
1,CNc1cc(Nc2ccc3oc4cccnc4n3c2=O)nn2c(C(=O)N[C@@H]3CC[C@H]3OC)cnc12,74.8 nM
2,CNc1cc(Nc2cccc3c2oc2nn(C)cc23)nn2c(C(=O)N[C@@H]3CC[C@H]3OC)cnc12,0.28 nM
3,CNc1cc(Nc2cccc3c2oc2cncnc23)nn2c(C(=O)NC3CCC3OC)cnc12 (stereo not drawn),0.3 nM
4,CNc1cc(Nc2cccc3c2C(=O)c2ccccc2-3)nn2c(C(=O)N[C@@H]3CC[C@H]3OC)cnc12,0.3 nM
5,CNc1cc(Nc2cccc3c2oc2ncc(C)cc23)nn2c(C(=O)N[C@@H]3CC[C@H]3OC)cnc12,0.11 nM
6,CNc1cc(Nc2cccc3c2oc2ccccc23)nc2c(C(=O)NCC(C)(C)CO)cnn12,6.8 nM
7,CNc1cc(Nc2cccc3c2oc2cnc(F)cc23)nn2c(C(=O)N[C@@H]3CC[C@H]3OC)cnc12,0.12 nM
8,CNc1cc(Nc2ccc3oc4ccccc4n3c2=O)nn2c(C(=O)N[C@@H]3CC[C@H]3OC)cnc12,38.1 nM
9,CNc1cc(Nc2cccc3c2oc2ncc(F)cc23)nn2c(C(=O)N[C@@H]3CC[C@H]3OC)cnc12,0.06 nM
10,CNc1cc(Nc2cccc3c2oc2ccccc23)nn2c(C(=O)NC3CCC3)cnc12,11.7 nM
11,CNc1cc(Nc2cccc3c2sc2ccccc23)nn2c(C(=O)N[C@@H]3CC[C@H]3OC)cnc12,10.9 nM
12,CNc1cc(Nc2cccc3c2C(=O)c2ccc(C)nc2-3)nn2c(C(=O)N[C@@H]3CC[C@H]3OC)cnc12,0.39 nM
13,CNc1cc(Nc2cccc3c2oc2cnc(C)cc23)nn2c(C(=O)N[C@@H]3CC[C@H]3OC)cnc12,0.05 nM
14,CNc1cc(Nc2cccn(-c3ccccn3)c2=O)nc2c(C(=O)N[C@@H]3CC[C@H]3OC)cnn12,3.1 nM
15,CNc1cc(Nc2cccc3c2oc2ccccc23)nc2c(C(=O)NC(C)C)cnn12,331 nM
16,CNc1cc(Nc2cccc3c2oc2ccc(C)nc23)nn2c(C(=O)NC3CCC3OC)cnc12 (stereo not drawn),0.09 nM
17,CNc1cc(Nc2cccc3c2C(=O)c2cccnc2-3)nn2c(C(=O)N[C@@H]3CC[C@H]3OC)cnc12,0.07 nM
18,CNc1cc(Nc2cccn3c2nc2ccc(C)nc23)nn2c(C(=O)N[C@@H]3CC[C@H]3OC)cnc12,0.39 nM
19,CNc1cc(Nc2cccc3c2oc2cc(=O)n(C)cc23)nn2c(C(=O)N[C@@H]3CC[C@H]3OC)cnc12,0.53 nM
20,CNc1cc(Nc2cccc3c2oc2ccc(C(F)(F)F)nc23)nn2c(C(=O)NC3CCC3OC)cnc12 (stereo not drawn),0.22 nM

row,SMILES,IC50
1,CNc1cc(Nc2cccc3c2oc2cnc(OC)nc23)nn2c(C(=O)N[C@@H]3CC[C@H]3OC)cnc12,0.24 nM
2,CNC(=O)c1nnc(NC(=O)C2CC2)cc1Nc1cccc(-c2ncn(C)n2)c1OC,0.8 nM
3,CNc1cc(Nc2cccc3c2oc2ccccc23)nc2c(C(=O)NC3CC34CC4)cnn12 (stereo not drawn),31.8 nM
4,CNc1cc(Nc2cccc3c2oc2ccccc23)nc2c(C(=O)N[C@@H]3C[C@@H]3F)cnn12,3.5 nM
5,CNc1cc(Nc2cccn3c2nc2cncnc23)nn2c(C(=O)N[C@@H]3CC[C@H]3OC)cnc12,0.4 nM
6,CNc1cc(Nc2cccc3c2oc2cccnc23)nn2c(C(=O)N[C@@H]3CC[C@H]3OC)cnc12,0.26 nM
7,CNc1cc(Nc2cccc3c2oc2c[nH]c(=O)nc23)nn2c(C(=O)N[C@@H]3CC[C@H]3OC)cnc12,20.6 nM
8,CNc1cc(Nc2cncc3c2oc2ccc(C)nc23)nn2c(C(=O)N[C@@H]3CC[C@H]3OC)cnc12,6.21 nM
9,CNc1cc(Nc2cccc3c2oc2nccc(C)c23)nn2c(C(=O)NC3CCC3OC)cnc12 (stereo not drawn),0.56 nM
10,CNc1cc(Nc2cccc3c2oc2c(C)ccnc23)nn2c(C(=O)NC3CCC3OC)cnc12 (stereo not drawn),0.45 nM
11,CNc1cc(Nc2cccc3c2oc2ccccc23)nc2c(C(=O)N[C@@H]3CCC[C@H]3O)cnn12,81.8 nM
12,CNc1cc(Nc2ccc3n(c2=O)Cc2ccccc2-3)nn2c(C(=O)N[C@@H]3CC[C@H]3OC)cnc12,87.2 nM
13,CNc1cc(Nc2cccc3c2oc2ccccc23)nc2c(C(=O)N[C@@H]3COC[C@H]3OC)cnn12,325 nM
14,CNc1cc(Nc2cccc3c2oc2ccnnc23)nn2c(C(=O)NC3CCC3OC)cnc12 (stereo not drawn),2.1 nM
15,CNc1cc(Nc2cccc3c2oc2ccccc23)nc2c(C(=O)NC3CC34CCC4)cnn12 (stereo not drawn),106 nM
16,CNc1cc(Nc2cccc3c2oc2ncc(C#N)cc23)nn2c(C(=O)N[C@@H]3CC[C@H]3OC)cnc12,0.07 nM
17,CNc1cc(Nc2cccc3c2oc2ccccc23)nc2c(C(=O)NC3CC3)cnn12,8.1 nM
18,CNc1cc(Nc2cccc3c2S(=O)(=O)c2ccccc2-3)nn2c(C(=O)N[C@@H]3CC[C@H]3OC)cnc12,5.18 nM
19,CNc1cc(Nc2cccc3c2oc2cc(F)cnc23)nn2c(C(=O)N[C@@H]3CC[C@H]3OC)cnc12,0.18 nM
20,CNc1cc(Nc2cccc3c2oc2ccccc23)nc2c(C(=O)NC3CCC3)cnn12,15.3 nM

row,SMILES,IC50
1,CNc1cc(Nc2cccc3c2oc2cc(C)cnc23)nn2c(C(=O)NC3CCC3OC)cnc12 (stereo not drawn),0.32 nM
2,CNc1cc(Nc2cccc3c2oc2nc(C)c(C)cc23)nn2c(C(=O)NC3CCC3OC)cnc12 (stereo not drawn),0.07 nM
3,CNc1cc(Nc2cccc3c2oc2ccc(F)nc23)nn2c(C(=O)N[C@@H]3CC[C@H]3OC)cnc12,0.27 nM
4,CNc1cc(Nc2cccc3c2C(=O)N2CCC(=O)C=C32)nn2c(C(=O)N[C@@H]3CC[C@H]3OC)cnc12,4.07 nM
5,CNc1cc(Nc2cccc3c2oc2nc(C)c(C)nc23)nn2c(C(=O)NC3CCC3OC)cnc12 (stereo not drawn),0.09 nM
6,CNc1cc(Nc2ccnc3c2oc2ccccc23)nn2c(C(=O)N[C@@H]3C[C@@H]3F)cnc12,107 nM
7,CNc1cc(Nc2cccc3c2oc2ccccc23)nc2c(C(=O)N[C@@H]3CC[C@H]3OC)cnn12,2.4 nM
8,CNc1cc(Nc2cccc3c2oc2ccccc23)nc2c(C(=O)N[C@@H]3COC[C@H]3O)cnn12,107 nM
9,CNc1cc(Nc2cccc3c2oc2ccccc23)nn2c(C(=O)N[C@@H]3CC[C@H]3OC)cnc12,1.1 nM
10,CNc1cc(Nc2ccc(=O)n3c2oc2ccccc23)nn2c(C(=O)N[C@@H]3CC[C@H]3OC)cnc12,210 nM
11,CNc1cc(Nc2cccc3c2oc2cnc(Cl)cc23)nn2c(C(=O)N[C@@H]3CC[C@H]3OC)cnc12,0.22 nM
12,CNc1cc(Nc2ccnc3c2oc2ccccc23)nc2c(C(=O)N[C@@H]3C[C@@H]3F)cnn12,65.9 nM
13,CNc1cc(Nc2cccc3c2oc2cnc(C)nc23)nn2c(C(=O)NC3CCC3OC)cnc12 (stereo not drawn),0.06 nM
14,CNc1cc(Nc2cccc3c2oc2cc(C(F)(F)F)cnc23)nn2c(C(=O)N[C@@H]3CC[C@H]3OC)cnc12,0.32 nM
15,CNc1cc(Nc2cccc3c2oc2cnc(C4CC4)nc23)nn2c(C(=O)NC3CCC3OC)cnc12 (stereo not drawn),0.18 nM
16,CNc1cc(Nc2cccc3c2oc2cnc(C#N)cc23)nn2c(C(=O)N[C@@H]3CC[C@H]3OC)cnc12,0.09 nM
17,CNc1cc(Nc2cccc3c2oc2ccccc23)nn2c(C(=O)N[C@@H]3C[C@@H]3F)cnc12,4 nM
18,CNc1cc(Nc2cccc3c2oc2nccnc23)nn2c(C(=O)N[C@@H]3CC[C@H]3OC)cnc12,1 nM
19,CNc1cc(Nc2cccc3c2oc2ccccc23)nc2c(C(=O)NCC(C)(C)O)cnn12,135 nM
